Results as given in US20060275503A1, “Combination treatment with strontium for the prophylaxis and/or treatment of cartilage and/or bone conditions” (Nordic Bone A/S, priority 2003, published 2006).

Method: The solubility of the organic carboxylic acid strontium salts, were measured in water. The solubility of these salts was also measured as a function of temperature. This was performed by incubating the saturated solutions of the salts in temperature controlled incubators.
The buffered solutions were immersed into a bath of water temperature controlled at either room temperature (22-24° C.), at 30° C. or at 40° C. […] In order to eliminate any reminiscent strontium chloride influence on the determination of solubility, all the precipitate was collected at the bottom of the test tubes and the solutions above the precipitate were carefully removed and substituted by fresh solutions. […] From these solutions, the dissolved proportions of the strontium salt were collected in volumes of 1 mL at the specified temperature. The solutions were diluted to 50 mL before analysis by Flame Atomic Absorption Spectrometry (F-AAS).
Two methods were used for quantification of strontium in solutions: Flame Atomic Absorption Spectrometry (F-AAS), and the more sensitive inductively-coupled-plasma-mass spectrometry (ICP-MS).
The solubilities were investigated as described above, and strontium content in the saturated solutions determined as described here below.
Some of the very soluble strontium salts were further diluted before analysis by F-AAS. The measurements were performed by using a Perkin-Elmer 2100 equipped with a hydrogen lamp for correction of the background signal. Strontium was measured at a slit with of 0.2 nm, the wavelength was 460.8 nm operated at an energy of 58 and a current of 8 mA.
This analysis was performed using a Perkin Elmer Elan 5000 system equipped with a cross-flow nebulizer. The power was set at 1000 W and the Argon-gas flow was 12 L/min and 0.8 L/min of the torch and plasma gas, respectively.

strontium α-ketoglutarate [α-ketogluterate]
SOLUBILITY AT 40° C. (mg/L) In water: 3534 mg/L
SOLUBILITY AT 40° C. (mg/L) pH 7.5 (pH 7.5): 3809 mg/L
SOLUBILITY AT ROOM TEMPERATURE (22-24° C. mg/L) pH 7.5 (pH 7.5): 2252 mg/L
